## Properties, as collected for the OPERA models

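These are experimental values that the OPERA curators gathered from public databases to train and test their QSAR models. One number stands for a compound and property, with no spread given. How each value was measured is not recorded, so precision varies. The measured form (salt, isomer or mixture) is not always the one drawn. Some entries may be limits or estimates that an upstream database listed as plain numbers.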

Melting points are in °C.
Boiling points are in °C, nominally at 760 mmHg.
logP is the log10 of the octanol-water partition coefficient; higher is more lipophilic.
Solubility in water is on a log10 molar scale (set defined at 25 °C).
Vapor pressures (log10 mmHg) refer to near room temperature, 15 to 30 °C; higher is more volatile.
fu is the fraction unbound in human plasma, from 0 to 1.
Clint is human hepatic intrinsic clearance in µL/min per million cells; 0 means that no clearance was seen.
Cells with "–" have no entry in this list.

| SMILES | name | melting point (°C) | BP (°C) | logP | log S (log10 mol/L) | log vapor pressure (log10 mmHg) | plasma fu | intrinsic clearance (µL/min/10^6 cells) |
|---|---|---|---|---|---|---|---|---|
| C=CC(=O)OCC(CC)(COCC(CC)(COC(=O)C=C)COC(=O)C=C)COC(=O)C=C | Ditrimethylolpropane tetraacrylate | -56 | – | 4.14 | -4.493 | – | – | – |
| Nc1cc(S(=O)(=O)[O-])cc2cc(S(=O)(=O)[O-])c(N=Nc3ccccc3)c(O)c12.[Na+].[Na+] | D&C Red No. 33 | 349.9 | – | -2.09 | – | – | – | – |
| C=C(C)C(=O)OCCOCCC[Si](C)(C)O[Si](C)(C)O[Si](C)(C)O[Si](C)(C)O[Si](C)(C)CCCC | – | – | – | – | -7.594 | -5.058 | – | – |
| CC(C)=CC=O | 3-Methylbut-2-enal | – | – | 0.53 | – | 0.75 | – | – |
| O=S1(=O)CC=CC1 | 2,5-Dihydrothiophene 1,1-dioxide | – | – | 1 | – | -2.011 | – | – |
| Cc1ccc2ncccc2c1 | 6-methylquinoline | – | – | – | – | – | 0.101 | 134 |
| Clc1ccc(COC(Cn2ccnc2)c2ccc(Cl)cc2Cl)cc1.O=[N+]([O-])O (configuration not stated) | Econazole nitrate | – | – | – | – | – | 0.00553 | 6.02 |
| O=C(Cl)c1cc(F)c(F)cc1F | 2,4,5-Trifluorobenzoyl chloride | -19.9 | – | – | – | -0.284 | – | – |
| CCOC(=O)C(=Cc1ccc(C=C(C(=O)OCC)C(=O)OCC)cc1)C(=O)OCC | – | 137 | – | 3.39 | – | -8.091 | – | – |
| CC(=O)OCC=Cc1ccccc1 | 3-Phenylprop-2-en-1-yl acetate | -3.7 | – | – | -2.75 | -0.862 | – | – |
| C=CCOC(=O)C(=C)C | Allyl methacrylate | – | – | 2.15 | -1.767 | – | – | – |
| C/N=C(\c1ccccc1Cl)C1(O)CCCC1 | 1-(2-Chloro-N-methylbenzimidoyl)cyclopentanol | 62.4 | – | 3.2 | -2.945 | -3.494 | – | – |
| O=C1c2ccccc2C(=O)N1C[C@H]1CN(c2ccc(N3CCOCC3=O)cc2)C(=O)O1 | – | 219.6 | – | -0.2 | – | – | – | – |
| O=C(Cl)c1ccc(C(=O)Cl)cc1 | 1,4-Benzenedicarbonyl dichloride | – | – | 0.88 | -4.08 | -2.952 | – | – |
| C=CC(=O)NC(C)(C)CS(=O)(=O)[O-].[NH4+] | – | – | – | -3.105 | 0.531 | -10.26 | – | – |
| CCCCC(CC)C(=O)OCC(COC(=O)C(CC)CCCC)OC(=O)C(CC)CCCC (configuration not stated) | 2-Ethylhexanoic acid triglyceride | -25.5 | – | – | -6.974 | – | – | – |
| Cc1c[nH]c(=O)cc1N | 4-Amino-5-methylpyridin-2(1H)-one | – | – | -0.51 | – | -6.625 | – | – |
| C1C2CC2C2CC12 (configuration not stated) | Tricyclo(4.1.0.02,4)-heptane | – | 105 | – | – | 1.573 | – | – |
| N#Cc1cccc([N+](=O)[O-])c1C#N | 1,2-Benzenedicarbonitrile, 3-nitro- | – | – | – | -2.937 | -6.824 | – | – |
| CC(CCO)CCCC(C)(C)O (configuration not stated) | 3,7-Dimethyloctane-1,7-diol | – | – | 1.59 | – | -3.986 | – | – |
| O=[N+]([O-])c1c(OCCO)nn2ccccc12 | 2-((3-Nitropyrazolo(1,5-a)pyridin-2-yl)oxy)ethanol | 165.6 | – | – | -3.272 | – | – | – |
| CCN(CCC#N)c1ccc(N=Nc2ccc([N+](=O)[O-])cc2Cl)cc1 | C.I. Disperse Red 50 | – | – | 1.442 | -4.253 | – | – | – |
| C/C(=C\C1CCCCC1)CC(C)C=O (stereo partly drawn) | – | – | 261.9 | 4.38 | -4.359 | -2.19 | – | – |
| CCC(C)CCCC(C)(C)O (configuration not stated) | 2,6-Dimethyloctan-2-ol | – | – | 3.2 | -2.749 | -1.156 | – | – |
| CCCCCCCCCCCCCCCC(=O)O[C@@H]1C[C@@H](C(=O)O)N(C(=O)CCCCCCCCCCCCCCC)C1 | – | 69 | – | – | – | -7.472 | – | – |
| CC1(C)CC(NC(=O)c2cccc(C(=O)NC3CC(C)(C)NC(C)(C)C3)c2)CC(C)(C)N1 | N,N'-Bis(2,2,6,6-tetramethyl-4-piperidyl)isophthalamide | 275.5 | – | 1.12 | – | – | – | – |
| CC(C)CCCCCCCCCCCCCCC(=O)OCC(COC(=O)CCCCCCCCCCCCCCC(C)C)(COC(=O)CCCCCCCCCCCCCCC(C)C)COC(=O)CCCCCCCCCCCCCCC(C)C | Pentaerythrityl tetraisostearate | -29 | – | – | -7.381 | – | – | – |
| CCCCCCCCCCCCCCCCCC[N+](C)(C)C.[Cl-] | N,N,N-Trimethyloctadecan-1-aminium chloride | – | – | – | -3.851 | -7.932 | – | – |
| CCCCC(CC)COCCO (configuration not stated) | 2-(2-Ethylhexyloxy)ethanol | -104.9 | – | 2.86 | -2.184 | -1.678 | – | – |
| O=C1CCC([C@H]2CC[C@H](c3ccc(F)c(F)c3)CC2)CC1 | – | 77.3 | – | 5 | -5.864 | -6.25 | – | – |
| CCCN(C)C | Dimethyl-N-propylamine | -61.58 | – | 1.32 | – | 2.131 | – | – |
| NCCCCCCCCCCN | 1,10-Decanediamine | – | 272.7 | – | – | -3.824 | – | – |
| CCCCCCCCN(CCO)CCO | N,N-Bis(2-hydroxyethyl)octylamine | – | – | – | -2.191 | -4.114 | – | – |
| CC(C)CC1CC(C)CCO1 (configuration not stated) | 2-Isobutyl-4-methyltetrahydro-2H-pyran | – | – | 4.3 | -3.08 | -0.016 | – | – |
| Clc1ccc(Oc2c(Cl)c(Cl)c(Cl)c(Cl)c2Cl)cc1Cl | 2,3,3',4,4',5,6-Heptachlorodiphenyl ether | 169 | – | – | -9.46 | – | – | – |

Extract of 3 entries:

| SMILES | name | melting point (°C) | BP (°C) | logP | log S (log10 mol/L) | log vapor pressure (log10 mmHg) | plasma fu | intrinsic clearance (µL/min/10^6 cells) |
|---|---|---|---|---|---|---|---|---|
| CCCCCCCCN(CCO)CCO | N,N-Bis(2-hydroxyethyl)octylamine | – | – | – | -2.191 | -4.114 | – | – |
| O=C1CCC([C@H]2CC[C@H](c3ccc(F)c(F)c3)CC2)CC1 | – | 77.3 | – | 5 | -5.864 | -6.25 | – | – |
| CC1(C)CC(NC(=O)c2cccc(C(=O)NC3CC(C)(C)NC(C)(C)C3)c2)CC(C)(C)N1 | N,N'-Bis(2,2,6,6-tetramethyl-4-piperidyl)isophthalamide | 275.5 | – | 1.12 | – | – | – | – |

Data: OPERA 2.9 data sets, kmansouri/OPERA on GitHub.